{
  "source": "patent US20060168675A1",
  "about": "“Novel polypetide having function of 7-keto-8-aminopelargonic acid synthase of plant and method for inducing growth inhibition and lethality by suppressing expression of the polypeptide” (GENOMINE, INC, priority 2002, published 2006)",
  "tested_on": "transgenic Arabidopsis thaliana comprising antisense construct of AtKAPAS gene",
  "conditions": "pots filled with sands containing 1 mM biotin; Basta treated 5 times",
  "description": "The pots were treated with Basta 5 times, and then investigated for the growth of Arabidopsis thaliana in every pot.",
  "data": [
    {"smiles": "O=C(O)CCCC[C@@H]1SC[C@@H]2NC(=O)N[C@@H]21", "note": "[biotin]", "values": [
      {"measurement": "Phenotype of grown plants", "value": "not much different from that of wild type Arabidopsis thaliana"}
    ]}
  ]
}
